The entries are a selection whose mix differs from that of the whole data set. Activity calls are given as the source filed them.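 The calls were made as follows: active = viability at or below 30% in both replicate assays; inconclusive = viability at or below 30% in just one of the two assays; inactive = the rest.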

This assay in a line: HUVEC growth inhibition – cell-based, human, primary screen (AID 575).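 Also: 100% = median of untreated cell wells with 0.1% DMSO on each plate.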 The note with it: HUVEC proliferation, CellTiter-Glo luminescence, 72 h; at 10 µM; active compounds read low. A digest of the protocol:
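Assay system: Primary human umbilical vein endothelial cells | Quantity: 1250 cells per well | Medium: Supplemented EBM, 2% fetal bovine serum | Detection: CellTiter-Glo luminescence measuring cellular ATP | Read-out: % viability vs DMSO wells | Plate: Collagen-coated 384-well format | Times: 72 h exposure, 37 °C, 5% CO2, 30 min RT equilibration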
In general terms: ATP-based viability assays read luminescence as a measure of living cells.
The term viability denotes a read-out of living cells in per cent, often relative to untreated cells. Turning to `COP1(=S)c2c(C)nn(CCC#N)c2N=C(c2ccc(F)cc2)N1C` (stereo not given), the viability was inactive: 105%.
Turning to `O=C(COc1ccccc1)OC1CN2CCC1CC2` (stereo not given), the viability is inactive: 100%.
For `Cc1nn(-c2ccccc2)c2c1P(=O)(N1CCOCC1)N(C)C(c1ccccc1)=N2` (stereo not given), the viability is inactive: 100%.
Take `CCOP1(=S)c2c(C)nn(CCC#N)c2N=C(c2ccccc2F)N1C` (stereo not given): the viability was inactive: 92.6%.
For the compound `O=P(Nc1nccs1)(c1ccccc1)c1ccccc1`, the viability is inactive: 85.2%.

The values above are taken from PubChem BioAssay AID575 (SRMLSC, 2007).
